PMC9552169, “Mutations Increasing Cofactor Affinity, Improve Stability and Activity of a Baeyer–Villiger Monooxygenase” (ACS Catalysis, 2022)

Test system: O=C1CCCCC1
Test: purified protein
Conditions: cyclohexanone taken from the standard assay (Figure 2: 100 μM NADPH, 50 mM TrisHCl pH 8.5)
[1] = variant L1-1, table prints only 'substrate'
[2] = variant L3-4 (b21 also lists a silent 'Y452Y'), table prints only 'substrate'

Substance: CHMOAcineto (CHMOwt) (Acinetobacter johnsonii; G14A)
- Km [1]: 3.5 ± 0.3 µM
- kcat [1]: 24.2 s⁻¹
- kcat/Km [1]: 7.06e+06 M⁻¹ s⁻¹

Substance: CHMOAcineto (CHMOwt) (Acinetobacter johnsonii; G14A/M400I/N336E/N477E/Q451K/Q473R/T453A/V454E)
- Km [2]: 5.0 ± 1.5 µM
- kcat [2]: 16.3 s⁻¹
- kcat/Km [2]: 3.19e+06 M⁻¹ s⁻¹
